Cyclic peptide permeability, from CycPeptMPDB

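Conditions beyond the assay type are not listed; see the original paper. The list need not hold all peptides of the study. Peptides that the database sets to -10, its floor, are left out.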

PAMPA is the parallel artificial membrane permeability assay, which has no cells and reads passive diffusion.
Permeability is in 10^-6 cm/s, converted from the database's log10 values; higher is more permeable.

Listed for CC(=O)N1CCC[C@@H]1C(=O)N(C)[C@@H](CC(C)C)C(=O)N[C@@H]1C(=O)N(C)[C@H](CC(C)C)C(=O)N[C@@H](CC(C)C)C(=O)N[C@H](CC(C)C)C(=O)N[C@@H](C)C(=O)N[C@@H](CC(C)C)C(=O)N2CCC[C@H]2C(=O)O[C@@H]1C: PAMPA 0.56 × 10^-6 cm/s. Listed for CC(=O)N1CCC[C@H]1C(=O)N[C@@H]1C(=O)N[C@H](CC(C)C)C(=O)N[C@@H](CC(C)C)C(=O)N[C@@H](CC(C)C)C(=O)N[C@@H](CC(C)C)C(=O)N[C@H](C)C(=O)N[C@@H](CC(C)C)C(=O)N2CCC[C@@H]2C(=O)O[C@@H]1C: PAMPA 0.27 × 10^-6 cm/s. For CC(=O)N1CCC[C@H]1C(=O)N(C)[C@@H](CC(C)C)C(=O)N[C@@H]1C(=O)N[C@@H](CC(C)C)C(=O)N[C@H](CC(C)C)C(=O)N(C)[C@H](CC(C)C)C(=O)N[C@@H](C)C(=O)N[C@@H](CC(C)C)C(=O)N2CCC[C@H]2C(=O)O[C@@H]1C the data give PAMPA 0.051 × 10^-6 cm/s. CC(=O)N1CCC[C@H]1C(=O)N(C)[C@@H](CC(C)C)C(=O)N[C@@H]1C(=O)N[C@H](CC(C)C)C(=O)N[C@H](CC(C)C)C(=O)N(C)[C@H](CC(C)C)C(=O)N(C)[C@H](C)C(=O)N[C@H](CC(C)C)C(=O)N2CCC[C@@H]2C(=O)O[C@@H]1C is reported with PAMPA 0.55 × 10^-6 cm/s. The entry for CC(=O)N1CCC[C@H]1C(=O)N(C)[C@H](CC(C)C)C(=O)N[C@@H]1C(=O)N(C)[C@@H](CC(C)C)C(=O)N[C@@H](CC(C)C)C(=O)N(C)[C@@H](CC(C)C)C(=O)N(C)[C@@H](C)C(=O)N[C@H](CC(C)C)C(=O)N2CCC[C@H]2C(=O)O[C@@H]1C lists PAMPA 0.26 × 10^-6 cm/s. CC(=O)N1CCC[C@H]1C(=O)N(C)[C@@H](CC(C)C)C(=O)N[C@@H]1C(=O)N[C@H](CC(C)C)C(=O)N(C)[C@@H](CC(C)C)C(=O)N[C@H](CC(C)C)C(=O)N(C)[C@H](C)C(=O)N[C@@H](CC(C)C)C(=O)N2CCC[C@H]2C(=O)O[C@@H]1C is reported with PAMPA 3.3 × 10^-6 cm/s. CC(=O)N1CCC[C@@H]1C(=O)N(C)[C@H](CC(C)C)C(=O)N[C@@H]1C(=O)N[C@@H](CC(C)C)C(=O)N(C)[C@H](CC(C)C)C(=O)N(C)[C@H](CC(C)C)C(=O)N(C)[C@@H](C)C(=O)N[C@@H](CC(C)C)C(=O)N2CCC[C@H]2C(=O)O[C@@H]1C is reported with PAMPA 0.52 × 10^-6 cm/s.

For CC(=O)N1CCC[C@H]1C(=O)N(C)[C@@H](CC(C)C)C(=O)N[C@@H]1C(=O)N(C)[C@@H](CC(C)C)C(=O)N(C)[C@@H](CC(C)C)C(=O)N(C)[C@H](CC(C)C)C(=O)N(C)[C@@H](C)C(=O)N[C@@H](CC(C)C)C(=O)N2CCC[C@@H]2C(=O)O[C@@H]1C the data give PAMPA 3.1 × 10^-6 cm/s. The entry for CC(=O)N1CCC[C@H]1C(=O)N(C)[C@@H](CC(C)C)C(=O)N[C@@H]1C(=O)N[C@@H](CC(C)C)C(=O)N[C@H](CC(C)C)C(=O)N(C)[C@@H](CC(C)C)C(=O)N[C@@H](C)C(=O)N[C@H](CC(C)C)C(=O)N2CCC[C@H]2C(=O)O[C@@H]1C lists PAMPA 1.4 × 10^-6 cm/s. CC(=O)N1CCC[C@H]1C(=O)N(C)[C@@H](CC(C)C)C(=O)N[C@@H]1C(=O)N[C@H](CC(C)C)C(=O)N[C@H](CC(C)C)C(=O)N(C)[C@@H](CC(C)C)C(=O)N(C)[C@H](C)C(=O)N[C@H](CC(C)C)C(=O)N2CCC[C@H]2C(=O)O[C@@H]1C has PAMPA 1.7 × 10^-6 cm/s. CC(=O)N1CCC[C@H]1C(=O)N[C@@H]1C(=O)N(C)[C@H](CC(C)C)C(=O)N[C@@H](CC(C)C)C(=O)N[C@@H](CC(C)C)C(=O)N[C@H](CC(C)C)C(=O)N[C@@H](C)C(=O)N[C@@H](CC(C)C)C(=O)N2CCC[C@@H]2C(=O)O[C@@H]1C has PAMPA 0.17 × 10^-6 cm/s. CC(=O)N1CCC[C@H]1C(=O)N(C)[C@H](CC(C)C)C(=O)N[C@@H]1C(=O)N(C)[C@@H](CC(C)C)C(=O)N[C@@H](CC(C)C)C(=O)N[C@@H](CC(C)C)C(=O)N[C@@H](C)C(=O)N[C@H](CC(C)C)C(=O)N2CCC[C@H]2C(=O)O[C@@H]1C is reported with PAMPA 0.19 × 10^-6 cm/s. For CC(=O)N1CCC[C@H]1C(=O)N(C)[C@@H](CC(C)C)C(=O)N[C@@H]1C(=O)N(C)[C@H](CC(C)C)C(=O)N(C)[C@H](CC(C)C)C(=O)N[C@H](CC(C)C)C(=O)N(C)[C@H](C)C(=O)N[C@@H](CC(C)C)C(=O)N2CCC[C@@H]2C(=O)O[C@@H]1C the data give PAMPA 8.3 × 10^-6 cm/s. Listed for CC(=O)N1CCC[C@H]1C(=O)N(C)[C@H](CC(C)C)C(=O)N[C@@H]1C(=O)N(C)[C@H](CC(C)C)C(=O)N[C@@H](CC(C)C)C(=O)N(C)[C@@H](CC(C)C)C(=O)N(C)[C@H](C)C(=O)N[C@@H](CC(C)C)C(=O)N2CCC[C@H]2C(=O)O[C@@H]1C: PAMPA 7.8 × 10^-6 cm/s.

The entry for CC(=O)N1CCC[C@H]1C(=O)N(C)[C@@H](CC(C)C)C(=O)N[C@@H]1C(=O)N[C@@H](CC(C)C)C(=O)N(C)[C@H](CC(C)C)C(=O)N[C@H](CC(C)C)C(=O)N(C)[C@H](C)C(=O)N[C@@H](CC(C)C)C(=O)N2CCC[C@@H]2C(=O)O[C@@H]1C lists PAMPA 6.8 × 10^-6 cm/s. CC(=O)N1CCC[C@@H]1C(=O)N(C)[C@H](CC(C)C)C(=O)N[C@@H]1C(=O)N(C)[C@H](CC(C)C)C(=O)N[C@H](CC(C)C)C(=O)N(C)[C@H](CC(C)C)C(=O)N[C@@H](C)C(=O)N[C@@H](CC(C)C)C(=O)N2CCC[C@H]2C(=O)O[C@@H]1C is reported with PAMPA 0.17 × 10^-6 cm/s. CC(=O)N1CCC[C@@H]1C(=O)N(C)[C@@H](CC(C)C)C(=O)N[C@@H]1C(=O)N[C@H](CC(C)C)C(=O)N[C@@H](CC(C)C)C(=O)N(C)[C@H](CC(C)C)C(=O)N(C)[C@@H](C)C(=O)N[C@@H](CC(C)C)C(=O)N2CCC[C@@H]2C(=O)O[C@@H]1C has PAMPA 5.2 × 10^-6 cm/s. Listed for CC(=O)N1CCC[C@@H]1C(=O)N(C)[C@@H](CC(C)C)C(=O)N[C@@H]1C(=O)N(C)[C@@H](CC(C)C)C(=O)N[C@H](CC(C)C)C(=O)N(C)[C@@H](CC(C)C)C(=O)N(C)[C@H](C)C(=O)N[C@H](CC(C)C)C(=O)N2CCC[C@H]2C(=O)O[C@@H]1C: PAMPA 0.89 × 10^-6 cm/s. CC(=O)N1CCC[C@@H]1C(=O)N(C)[C@H](CC(C)C)C(=O)N[C@@H]1C(=O)N(C)[C@@H](CC(C)C)C(=O)N[C@H](CC(C)C)C(=O)N(C)[C@@H](CC(C)C)C(=O)N(C)[C@@H](C)C(=O)N[C@H](CC(C)C)C(=O)N2CCC[C@H]2C(=O)O[C@@H]1C is reported with PAMPA 3.6 × 10^-6 cm/s. The entry for CC(=O)N1CCC[C@H]1C(=O)N(C)[C@H](CC(C)C)C(=O)N[C@@H]1C(=O)N[C@H](CC(C)C)C(=O)N(C)[C@@H](CC(C)C)C(=O)N(C)[C@H](CC(C)C)C(=O)N[C@H](C)C(=O)N[C@@H](CC(C)C)C(=O)N2CCC[C@H]2C(=O)O[C@@H]1C lists PAMPA 2.3 × 10^-6 cm/s.

3 of these entries, quoted again:

{"smiles": "CC(=O)N1CCC[C@@H]1C(=O)N(C)[C@@H](CC(C)C)C(=O)N[C@@H]1C(=O)N(C)[C@H](CC(C)C)C(=O)N[C@@H](CC(C)C)C(=O)N[C@H](CC(C)C)C(=O)N[C@@H](C)C(=O)N[C@@H](CC(C)C)C(=O)N2CCC[C@H]2C(=O)O[C@@H]1C", "PAMPA (10^-6 cm/s)": "0.56"}
{"smiles": "CC(=O)N1CCC[C@H]1C(=O)N(C)[C@H](CC(C)C)C(=O)N[C@@H]1C(=O)N(C)[C@H](CC(C)C)C(=O)N[C@@H](CC(C)C)C(=O)N(C)[C@@H](CC(C)C)C(=O)N(C)[C@H](C)C(=O)N[C@@H](CC(C)C)C(=O)N2CCC[C@H]2C(=O)O[C@@H]1C", "PAMPA (10^-6 cm/s)": "7.8"}
{"smiles": "CC(=O)N1CCC[C@H]1C(=O)N(C)[C@@H](CC(C)C)C(=O)N[C@@H]1C(=O)N(C)[C@@H](CC(C)C)C(=O)N(C)[C@@H](CC(C)C)C(=O)N(C)[C@H](CC(C)C)C(=O)N(C)[C@@H](C)C(=O)N[C@@H](CC(C)C)C(=O)N2CCC[C@@H]2C(=O)O[C@@H]1C", "PAMPA (10^-6 cm/s)": "3.1"}

Data: CycPeptMPDB; original report Kelly et al. 2021, doi:10.1021/jacs.0c06115.